Assay results published in article PMC4876925 (Nano research, 2016).

System: WEHI-164 fibrosarcomas
Assay: Tumor and organ uptake of IRDye 680 conjugates in WEHI-164 tumor-bearing mice
Format: in vivo
Conditions: 20 µg i.v., 24 h; ratio CD31+CD45− / CD45+ cells

## *HSA/IRDye 680: *HSA labeled with IRDye 680, control
  Relative staining of endothelial cells/leukocytes versus controls: but not for *HSA/IRDye 680 compared to controls
